# Structures can show the parent of a compound that is named as a salt.
# System: Patient four
# Assay: Protocol and results with patient four (morbid obesity, cardiomyopathy)
# Format: in vivo, human
# Details: combination Adipex-P 37.5 one-half + Zoloft 25 mg + Aricept 1.25 mg + fenfluramine 5 mg (+ atenolol 12.5 mg)
# Procedure: This person has been in the practice for several years. Their medical problems surround a cardiomyopathy with a low cardiac output state and heart failure. They also have a history of hypertension, hypothyroidism on therapy, and morbid obesity.
# Medication alterations continued over the next several months with increasing Ionamin to 30 mg. Hytrin was added at 2 mg because of prostatic symptoms and in November Pondimin was added.
# Adipex-P 37.5 one-half was added to their medications. […]
structure (smiles),measurement,setting,value
"CN[C@H]1CC[C@@H](c2ccc(Cl)c(Cl)c2)c2ccccc21 [Zoloft, sertraline HCl]",cardiac index remeasured,,even more improved than previously
same,body weight the next month,from 235 lb June 1999,218
